{"sequences": {"note": "By UniProt entry, the sequences of proteins in these tests, tags left out.", "UniProt P68400, whole entry": "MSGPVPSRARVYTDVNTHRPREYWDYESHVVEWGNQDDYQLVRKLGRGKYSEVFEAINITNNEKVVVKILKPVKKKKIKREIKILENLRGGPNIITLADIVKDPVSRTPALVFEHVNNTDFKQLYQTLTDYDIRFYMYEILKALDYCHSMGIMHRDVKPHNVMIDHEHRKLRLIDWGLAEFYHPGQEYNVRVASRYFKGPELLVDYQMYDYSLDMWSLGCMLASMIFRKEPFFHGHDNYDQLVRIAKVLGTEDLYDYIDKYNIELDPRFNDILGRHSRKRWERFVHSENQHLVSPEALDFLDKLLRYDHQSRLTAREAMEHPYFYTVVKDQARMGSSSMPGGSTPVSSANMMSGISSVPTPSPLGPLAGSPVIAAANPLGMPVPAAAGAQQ"}, "source": "patent US8168651B2", "about": "“Protein kinase modulators” (Cylene Pharmaceuticals, Inc., priority 2008, dated 2012)", "data": [{"molecular_target": "recombinant human CK2 (Homo sapiens (Human), UniProt P68400)", "experiment": "CK2 assay (cell-free, 33P-ATP filter plate)", "details": "read-out: CK2 (15 um ATP) IC50; 15 um ATP, cell-free assay", "units": {"IC50": "µM"}, "values": [{"smiles": "O=C(O)c1ccc2c(c1)nc(Nc1cncc(C3CC3)c1)c1ccncc12", "note": "[drawing 1619]", "IC50": "> 0.75"}, {"smiles": "CN(C)c1ncc2c(n1)c(Nc1cccc(Cl)c1)nc1cc(C(=O)O)ccc12", "note": "[drawing 1593]", "IC50": "> 0.75"}, {"smiles": "CN(C)c1ncc2c(n1)c(NC1CC1)nc1cc(C(=O)O)ccc12", "note": "[drawing 1647]", "IC50": "> 0.75"}, {"smiles": "CC(C)OC(=O)Nc1ccc2c(c1)nc(Nc1cccc(C(F)(F)F)c1)c1nc(NC3CC3)ncc12", "note": "[drawing 1640]", "IC50": "> 0.75"}, {"smiles": "O=C(O)c1ccc2c(c1)nc(NC1CC1)c1nc(SCc3ccccc3Cl)ncc12", "note": "[drawing 1614]", "IC50": "> 0.75"}, {"smiles": "CCOc1ncc2c(n1)c(Nc1cccc(C(F)(F)F)c1)nc1cc(C(=O)O)ccc12", "note": "[drawing 1591]", "IC50": "> 0.75"}, {"smiles": "O=C(NC1CC1)c1ccc2c(c1)nc(Nc1cccc(C(F)(F)F)c1)c1nc(NC3CC3)ncc12", "note": "[drawing 1633]", "IC50": "> 0.75"}, {"smiles": "COC(=O)c1ccc2c(c1)nc(NC1CC1)c1nc(SCc3ccccc3Cl)ncc12", "note": "[drawing 1611]", "IC50": "> 0.75"}, {"smiles": "CC(=O)Nc1ccc2c(c1)nc(Nc1cccc(C(F)(F)F)c1)c1nc(NC3CC3)ncc12", "note": "[drawing 1649]", "IC50": "> 0.75"}, {"smiles": "CN(C)CCNc1nc2cc(C(=O)O)ccc2c2cnc(NC3CC3)nc12", "note": "[drawing 1642]", "IC50": "> 0.75"}, {"smiles": "C#Cc1cccc(Nc2nc3cc(C(=O)OC)ccc3c3cnc(NOC)nc23)c1", "note": "[drawing 1609]", "IC50": "> 0.75"}, {"smiles": "NC(=O)c1ccc2c(c1)nc(Nc1cccc(C(F)(F)F)c1)c1nc(NC3CC3)ncc12", "note": "[drawing 1632]", "IC50": "> 0.75"}, {"smiles": "CNC(=O)c1ccc2c(c1)nc(Nc1cccc(C(F)(F)F)c1)c1nc(NC3CC3)ncc12", "note": "[drawing 1634]", "IC50": "> 0.75"}, {"smiles": "COC(=O)c1ccc2c(c1)nc(NC1CC1)c1nc(SC)ncc12", "note": "[drawing 1641]", "IC50": "> 0.75"}, {"smiles": "COC(=O)c1ccc2c(c1)nc(Nc1cccc(Cl)c1)c1nc(NCCC(N)=O)ncc12", "note": "[drawing 1610]", "IC50": "> 0.75"}]}, {"molecular_target": "recombinant human CK2 (Homo sapiens (Human), UniProt P68400)", "experiment": "CK2 assay (cell-free, 33P-ATP filter plate)", "details": "read-out: CK2: IC50 (uM) (15 uM ATP); 15 uM ATP", "units": {"IC50": "µM"}, "values": [{"smiles": "CN(C)CCNc1nc2cc(C(=O)O)ccc2c2cnc(NC3CC3)nc12", "note": "[drawing 806]", "IC50": "> 0.75"}, {"smiles": "CN(C)c1ncc2c(n1)c(NC1CC1)nc1cc(C(=O)O)ccc12", "note": "[drawing 810]", "IC50": "> 0.75"}, {"smiles": "C#Cc1cccc(Nc2nc3cc(C(=O)OC)ccc3c3cnc(NOC)nc23)c1", "note": "[drawing 773]", "IC50": "> 0.75"}, {"smiles": "CC(=O)Nc1ccc2c(c1)nc(Nc1cccc(C(F)(F)F)c1)c1nc(NC3CC3)ncc12", "note": "[drawing 812]", "IC50": "> 0.75"}, {"smiles": "O=C(NC1CC1)c1ccc2c(c1)nc(Nc1cccc(C(F)(F)F)c1)c1nc(NC3CC3)ncc12", "note": "[drawing 797]", "IC50": "> 0.75"}, {"smiles": "CNc1ncc2c(n1)c(Nc1ccccc1)nc1cc(C(=O)OC)ccc12", "note": "[drawing 734]", "IC50": "> 0.5"}, {"smiles": "COC(=O)c1ccc2c(c1)nc(Nc1cccc(Cl)c1)c1nc(NCCC(N)=O)ncc12", "note": "[drawing 774]", "IC50": "> 0.75"}, {"smiles": "COC(=O)c1ccc2c(c1)nc(NC1CC1)c1nc(SC)ncc12", "note": "[drawing 805]", "IC50": "> 0.75"}, {"smiles": "COC(=O)c1ccc2c(c1)nc(Nc1cccc(Cl)c1)c1ccncc12", "note": "[drawing 731]", "IC50": "> 0.5"}, {"smiles": "CCOc1ncc2c(n1)c(Nc1cccc(C(F)(F)F)c1)nc1cc(C(=O)O)ccc12", "note": "[drawing 755]", "IC50": "> 0.75"}, {"smiles": "CNC(=O)c1ccc2c(c1)nc(Nc1cccc(C(F)(F)F)c1)c1nc(NC3CC3)ncc12", "note": "[drawing 798]", "IC50": "> 0.75"}, {"smiles": "CN(C)c1ncc2c(n1)c(Nc1cccc(Cl)c1)nc1cc(C(=O)O)ccc12", "note": "[drawing 757]", "IC50": "> 0.75"}, {"smiles": "NC(=O)c1ccc2c(c1)nc(Nc1cccc(C(F)(F)F)c1)c1nc(NC3CC3)ncc12", "note": "[drawing 796]", "IC50": "> 0.75"}, {"smiles": "CC(C)OC(=O)Nc1ccc2c(c1)nc(Nc1cccc(C(F)(F)F)c1)c1nc(NC3CC3)ncc12", "note": "[drawing 804]", "IC50": "> 0.75"}, {"smiles": "COC(=O)c1ccc2c(c1)nc(Nc1ccccc1)c1nc(S(C)(=O)=O)ncc12", "note": "[drawing 733]", "IC50": "> 0.5"}, {"smiles": "O=C(O)c1ccc2c(c1)nc(N1CCOCC1)c1nc(NC3CC3)ncc12", "note": "[drawing 791]", "IC50": "> 0.75"}, {"smiles": "COC(=O)c1ccc2c(c1)nc(Nc1ccccc1)c1nc(SC)ncc12", "note": "[drawing 732]", "IC50": "> 0.5"}, {"smiles": "COC(=O)c1ccc2c(c1)nc(NC1CC1)c1nc(SCc3ccccc3Cl)ncc12", "note": "[drawing 775]", "IC50": "> 0.75"}]}, {"molecular_target": "recombinant human CK2 (Homo sapiens (Human), UniProt P68400)", "experiment": "CK2 assay (cell-free, 33P-ATP filter plate)", "details": "read-out: CK2 IC50", "units": {"IC50": "µM"}, "values": [{"smiles": "Clc1nc2ccccc2c2sccc12", "note": "[drawing 586]", "IC50": "> 5"}, {"smiles": "COC(=O)c1ccc2c(c1)nc(Cl)c1ccsc12", "note": "[drawing 572]", "IC50": "> 10"}, {"smiles": "O=C(NCCCO)c1ccc2c(c1)nc(NCCCO)c1ccsc12", "note": "[drawing 573]", "IC50": "> 10"}]}]}
